From patent US5045530A, “Pharmaceutical preparations” (priority 1986, dated 1991) come the findings set out here.

This data set can be described thus: hydrodynamic (Stokes) radius / size of micelles and vesicles, inelastic light scattering. Type of data set: physicochemical.

For the substance “Benzyldimethyl[2-[2-(p-1,1,3,3,tetramethylbutyl-p,p'-dimethyl-phenoxy)ethoxy]ethyl]ammonium”, the “<RH> hydrodynamic radius” value reads like this: (Table 3, counter ion Y- = NO3-) 150 Å; (Table 3, counter ion Y- = Salicylate) 3000 Å.
